## Antibody variant affinities, Ab-95 light chain, assay 2

The target is the same throughout: PDVDLGDISGINAS, from the HR2 region of SARS-CoV-2 spike.

Parent scFv Ab-95: VH joined to VL by a (GGGGS)3 linker. Changes lie in the light chain CDRs alone.
VH: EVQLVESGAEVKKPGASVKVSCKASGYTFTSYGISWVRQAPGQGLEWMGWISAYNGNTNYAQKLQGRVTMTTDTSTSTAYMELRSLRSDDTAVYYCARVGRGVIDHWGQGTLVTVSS
VL: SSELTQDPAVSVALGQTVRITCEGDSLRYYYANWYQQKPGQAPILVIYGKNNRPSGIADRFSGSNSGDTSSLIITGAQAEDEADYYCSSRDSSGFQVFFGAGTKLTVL

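Phage display of a naive human antibody library on the peptide gave the parent. Library AAYL52 holds single substitutions and randomly drawn double and triple substitutions in the CDRs. Affinity was read by AlphaSeq, a pooled yeast mating assay with surface-displayed partners. After mating in shaken culture at 30 °C for 16 h, diploids were selected and their barcode pairs sequenced. The ratio of observed to expected reads was calibrated, replicate by replicate, on BCL2-family standards whose Kd was known from biolayer interferometry. The assay was run in three technical replicates.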

Substitutions are numbered in sequence along the VL above, starting at 1 (not Kabat). Numbers give log10(Kd / nM), so 0 is 1 nM and 3 is 1 µM. Smaller is tighter. Where no diploid with the target was found in that replicate, the entry reads "nd": below detection, most likely a poor binder, though not proof of it.

{"changes": "G24V/G49C/P54Y", "log10 Kd, replicates": "nd / nd / 4.30", "control signals": "2/9 (3.96)"}
{"changes": "G49Q/N51G", "log10 Kd, replicates": "nd / nd / nd", "control signals": "1/9 (4.16)"}
{"changes": "G24N/Y30K/S93R", "log10 Kd, replicates": "3.32 / nd / nd", "control signals": "3/9 (3.92)"}
{"changes": "D25C/A32S/S92G", "log10 Kd, replicates": "4.19 / 3.90 / nd", "control signals": "2/9 (4.83)"}
{"changes": "E23C/R28N/F98P", "log10 Kd, replicates": "1.95 / 1.93 / 1.57", "control signals": "4/9 (3.87)"}
{"changes": "G49S/R90V/D91K", "log10 Kd, replicates": "nd / nd / nd", "control signals": "1/9 (3.07)"}
{"changes": "L27W/N33Q/F95Q", "log10 Kd, replicates": "5.09 / nd / nd", "control signals": "1/9 (3.39)"}
{"changes": "E23R/K50E/P54Q", "log10 Kd, replicates": "1.69 / 1.81 / 1.26", "control signals": "4/9 (3.94)"}
{"changes": "A32H/S89Y/V97I", "log10 Kd, replicates": "3.43 / 2.72 / 2.83", "control signals": "2/9 (4.32)"}
{"changes": "Y30V/S55E/F98N", "log10 Kd, replicates": "2.19 / 1.85 / 3.58", "control signals": "1/9 (3.63)"}
{"changes": "D91C", "log10 Kd, replicates": "nd / nd / nd", "control signals": "0/9"}
{"changes": "L27Y/R28P/P54A", "log10 Kd, replicates": "2.79 / 2.72 / 2.53", "control signals": "1/9 (3.73)"}
{"changes": "R28M/K50E/P54S", "log10 Kd, replicates": "2.56 / 1.92 / 2.02", "control signals": "0/9"}
{"changes": "Y31W/N52P/G94M", "log10 Kd, replicates": "nd / nd / nd", "control signals": "0/9"}
{"changes": "S26A/S88F/Q96P", "log10 Kd, replicates": "4.37 / nd / nd", "control signals": "3/9 (3.77)"}
{"changes": "R53W/D91L", "log10 Kd, replicates": "nd / nd / nd", "control signals": "2/9 (3.74)"}
{"changes": "R28C/S93I/F98T", "log10 Kd, replicates": "3.34 / 3.23 / 2.52", "control signals": "5/9 (4.46)"}
{"changes": "E23M/Y31S/A32P", "log10 Kd, replicates": "1.22 / 1.09 / 0.58", "control signals": "0/9"}
{"changes": "E23P/P54K/G94D", "log10 Kd, replicates": "5.34 / nd / 3.95", "control signals": "3/9 (3.70)"}
{"changes": "R53I/P54S/F95P", "log10 Kd, replicates": "3.58 / 4.23 / 3.73", "control signals": "1/9 (4.84)"}
{"changes": "D25N/S26K/N52W", "log10 Kd, replicates": "nd / nd / 4.48", "control signals": "4/9 (3.86)"}
{"changes": "E23F/Y31F/S93N", "log10 Kd, replicates": "3.50 / 2.93 / 3.73", "control signals": "0/9"}
{"changes": "Y29D/F95K/V97I", "log10 Kd, replicates": "1.60 / 1.30 / 1.11", "control signals": "2/9 (3.53)"}
{"changes": "G49V/S89W/S92I", "log10 Kd, replicates": "nd / 3.58 / nd", "control signals": "0/9"}
{"changes": "E23S/R28K/N52F", "log10 Kd, replicates": "1.93 / 1.87 / 1.77", "control signals": "6/9 (3.94)"}
{"changes": "D25M/S55R/D91V", "log10 Kd, replicates": "nd / 3.10 / 3.25", "control signals": "2/9 (4.38)"}
{"changes": "E23C/G94W", "log10 Kd, replicates": "2.57 / 2.44 / nd", "control signals": "1/9 (3.09)"}
{"changes": "L27K/N33V/P54K", "log10 Kd, replicates": "nd / nd / 4.10", "control signals": "4/9 (3.82)"}
{"changes": "R28A/S89C/S93F", "log10 Kd, replicates": "nd / nd / nd", "control signals": "1/9 (3.25)"}
{"changes": "S93Q/F95Y/F98R", "log10 Kd, replicates": "2.69 / 3.00 / 4.35", "control signals": "1/9 (4.05)"}
{"changes": "L27P/N52D/G94C", "log10 Kd, replicates": "4.36 / nd / 3.96", "control signals": "1/9 (4.08)"}
{"changes": "R28Q/S92I/Q96L", "log10 Kd, replicates": "3.38 / 2.85 / 2.43", "control signals": "3/9 (4.57)"}

For reference, the parent read 2.31 as the reference entry and 2.25 as a member of this library. Empty control strains, which show no peptide, gave a signal in 28% of pairings with library AAYL52; the median was 3.91 and 95% of these signals were weaker than 2.90. No background was subtracted. The control count says in how many pairings with the empty strains this scFv gave a signal, with their mean in brackets.

Source: Engelhart et al. 2022 (doi:10.1038/s41597-022-01779-4), MIT Lincoln Laboratory and A-Alpha Bio; data file from the FLAb repository.